The source of these data is ChEMBL document CHEMBL1159064 (J Med Chem, 2010).

By UniProt entry, the sequences of proteins in these tests, tags left out.
UniProt P14416, whole entry: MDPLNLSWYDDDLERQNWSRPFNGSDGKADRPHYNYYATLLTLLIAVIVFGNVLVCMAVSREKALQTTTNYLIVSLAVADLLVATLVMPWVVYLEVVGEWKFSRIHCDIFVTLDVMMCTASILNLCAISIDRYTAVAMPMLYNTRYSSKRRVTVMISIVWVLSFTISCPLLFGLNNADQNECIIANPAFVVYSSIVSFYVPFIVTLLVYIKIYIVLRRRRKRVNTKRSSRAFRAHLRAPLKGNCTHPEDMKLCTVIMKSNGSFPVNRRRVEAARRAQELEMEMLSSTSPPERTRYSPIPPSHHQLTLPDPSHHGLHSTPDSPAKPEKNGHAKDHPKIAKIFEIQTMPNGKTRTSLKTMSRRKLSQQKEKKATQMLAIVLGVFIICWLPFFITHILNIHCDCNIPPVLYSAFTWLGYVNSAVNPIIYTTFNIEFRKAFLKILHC

For orientation: Ki means the dissociation constant of the complex between target and ligand, obtained from inhibition or displacement.

The assay addresses D(2) dopamine receptor (Homo sapiens, UniProt P14416). Description: Displacement of [3H]spiperone from dopamine D2 receptor expressed in HEK293 cells by liquid scintillation counting. The class given is cell-based. (In a radioligand displacement assay an active substance lowers the binding of a labelled ligand.)

`CCCN1CCc2cccc3c2[C@H]1Cc1cccc(O)c1-3`: the Ki was determined as 114 nM.
